pIC50: −log10 of the molar value.
How the values were obtained:
[1] = molecular target: Metabotropic glutamate receptor 2 (Homo sapiens, UniProt Q14416); assay: Negative allosteric modulation at human mGluR2 receptor stably expressed in DHFR null CHO cells co-expressing Galpha16 assessed as effect on intracellular calcium flux measured after 5 min by Fluo-4AM dye based FLIPR analysis; assay type: functional, cell-based
P-gp (ABCB1) = P-gp (ABCB1) (Rattus norvegicus, UniProt P43245); assay: Substrate activity at rat P-gp […] in […] LLC-MDR1 cells assessed as efflux ratio of apparent permeability across basolateral to apical over apical to basolateral side; assay type: ADME, cell-based, LLC-MDR1 cell; details: LLC-PK1

By UniProt entry, the sequences of proteins in these tests, tags left out. Where a name states a change or a piece, a line headed by the entry shows the natural chain unless it says otherwise.
UniProt Q14416: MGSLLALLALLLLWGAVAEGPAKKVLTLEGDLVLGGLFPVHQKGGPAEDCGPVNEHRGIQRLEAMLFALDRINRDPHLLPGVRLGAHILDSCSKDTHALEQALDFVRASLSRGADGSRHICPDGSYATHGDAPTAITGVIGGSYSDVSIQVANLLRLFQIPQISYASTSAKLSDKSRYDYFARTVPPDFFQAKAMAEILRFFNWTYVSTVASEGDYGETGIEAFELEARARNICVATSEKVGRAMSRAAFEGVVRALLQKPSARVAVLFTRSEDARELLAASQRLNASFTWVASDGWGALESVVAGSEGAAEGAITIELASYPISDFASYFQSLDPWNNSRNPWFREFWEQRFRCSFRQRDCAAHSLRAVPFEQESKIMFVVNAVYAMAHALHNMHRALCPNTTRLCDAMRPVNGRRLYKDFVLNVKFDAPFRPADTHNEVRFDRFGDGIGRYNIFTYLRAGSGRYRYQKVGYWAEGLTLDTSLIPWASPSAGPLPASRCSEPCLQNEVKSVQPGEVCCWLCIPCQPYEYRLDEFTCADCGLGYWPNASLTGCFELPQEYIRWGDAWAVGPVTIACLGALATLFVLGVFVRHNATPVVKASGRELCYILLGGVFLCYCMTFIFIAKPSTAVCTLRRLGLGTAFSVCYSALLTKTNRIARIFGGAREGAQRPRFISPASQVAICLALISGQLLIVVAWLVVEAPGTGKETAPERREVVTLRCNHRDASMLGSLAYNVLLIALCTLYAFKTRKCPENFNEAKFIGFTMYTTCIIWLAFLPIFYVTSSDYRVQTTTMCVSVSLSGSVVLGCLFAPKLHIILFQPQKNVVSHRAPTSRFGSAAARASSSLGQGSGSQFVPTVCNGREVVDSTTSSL
UniProt P43245, whole entry: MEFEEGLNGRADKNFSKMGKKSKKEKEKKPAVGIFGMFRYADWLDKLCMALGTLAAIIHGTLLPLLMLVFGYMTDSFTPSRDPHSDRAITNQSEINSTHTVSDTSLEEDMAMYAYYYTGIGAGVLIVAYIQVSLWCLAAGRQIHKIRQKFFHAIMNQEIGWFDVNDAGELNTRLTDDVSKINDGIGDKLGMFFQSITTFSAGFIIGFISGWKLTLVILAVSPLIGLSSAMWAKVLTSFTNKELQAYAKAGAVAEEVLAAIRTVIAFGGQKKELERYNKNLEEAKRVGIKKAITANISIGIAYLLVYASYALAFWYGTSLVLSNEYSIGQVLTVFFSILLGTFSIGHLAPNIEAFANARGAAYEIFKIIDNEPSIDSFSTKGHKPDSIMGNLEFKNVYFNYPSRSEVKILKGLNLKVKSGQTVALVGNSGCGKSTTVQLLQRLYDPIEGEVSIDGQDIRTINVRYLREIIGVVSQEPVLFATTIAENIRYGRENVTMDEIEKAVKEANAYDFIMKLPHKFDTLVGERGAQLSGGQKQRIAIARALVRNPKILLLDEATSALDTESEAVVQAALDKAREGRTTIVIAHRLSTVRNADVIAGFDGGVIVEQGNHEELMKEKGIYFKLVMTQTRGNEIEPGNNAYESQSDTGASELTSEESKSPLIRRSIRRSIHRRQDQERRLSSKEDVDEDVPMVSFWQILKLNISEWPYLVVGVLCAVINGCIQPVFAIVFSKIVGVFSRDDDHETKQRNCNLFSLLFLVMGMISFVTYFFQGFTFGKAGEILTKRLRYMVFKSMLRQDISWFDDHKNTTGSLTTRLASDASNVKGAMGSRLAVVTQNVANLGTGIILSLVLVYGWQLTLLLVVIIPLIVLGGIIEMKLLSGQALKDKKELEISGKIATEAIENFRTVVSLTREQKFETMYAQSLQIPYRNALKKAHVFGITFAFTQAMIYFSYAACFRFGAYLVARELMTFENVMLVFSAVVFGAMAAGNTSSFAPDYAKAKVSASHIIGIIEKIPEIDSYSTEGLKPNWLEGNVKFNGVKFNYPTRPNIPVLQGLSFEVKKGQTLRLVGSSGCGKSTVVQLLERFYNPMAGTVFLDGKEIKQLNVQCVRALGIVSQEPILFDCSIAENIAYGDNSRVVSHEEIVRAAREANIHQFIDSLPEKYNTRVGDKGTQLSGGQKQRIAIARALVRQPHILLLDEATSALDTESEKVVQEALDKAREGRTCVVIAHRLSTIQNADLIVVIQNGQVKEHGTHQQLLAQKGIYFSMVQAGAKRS

Row | SMILES | pIC50 [1] | efflux ratio (P-gp (ABCB1))
1 | NC(=O)c1cc(-c2ccc(F)cc2)c2ccc(CN3CCOC3=O)cc2n1 | – | 3.3
2 | CC1CN(Cc2ccc3c(-c4ccc(F)cc4)cc(C(N)=O)nc3c2)CCO1 (racemic) | 7.37 | –
3 | CC1CN(Cc2ccc3c(-c4cnn(C)c4)cc(C(N)=O)nc3c2)CCO1 (racemic) | 6.78 | –
4 | NC(=O)c1cc(-c2ccc(F)cc2)c2ccc(CN3CCNC(C(F)(F)F)C3)cc2n1 (racemic) | 7.92 | –

Next, values leading:

Row | pIC50 [1] | efflux ratio (P-gp (ABCB1)) | SMILES
5 | 7.96 | – | Cn1cc(-c2cc(C(N)=O)nc3cc(CN4CCO[C@@H](C(F)(F)F)C4)ccc23)cn1
6 | 7.92 | – | Cn1cc(-c2cc(C(N)=O)nc3cc(CN4CCOC(C(F)(F)F)C4)ccc23)cn1 (racemic)
7 | 8.10 | – | CC1CC=C(c2cc(C(N)=O)nc3cc(CN4C(=O)CCC4=O)ccc23)CC1 (racemic)
